Results reported in PubChem BioAssay AID720506 (National Center for Advancing Translational Sciences (NCATS), 2013).
This is a selection; strong and weak results do not stand in their true shares. Records with an inconclusive call do not appear. Calls of active or inactive are those of the source. Calls follow the shape of the dose curve; as a rule, active = well fitted activation curve with a large enough effect; inconclusive = small, poorly fitted or top-dose-only effect; inactive = flat fitted curve, though single readings scatter.

Chains of the proteins cited; added tags and fusions are not shown.
UniProt P35462, whole entry: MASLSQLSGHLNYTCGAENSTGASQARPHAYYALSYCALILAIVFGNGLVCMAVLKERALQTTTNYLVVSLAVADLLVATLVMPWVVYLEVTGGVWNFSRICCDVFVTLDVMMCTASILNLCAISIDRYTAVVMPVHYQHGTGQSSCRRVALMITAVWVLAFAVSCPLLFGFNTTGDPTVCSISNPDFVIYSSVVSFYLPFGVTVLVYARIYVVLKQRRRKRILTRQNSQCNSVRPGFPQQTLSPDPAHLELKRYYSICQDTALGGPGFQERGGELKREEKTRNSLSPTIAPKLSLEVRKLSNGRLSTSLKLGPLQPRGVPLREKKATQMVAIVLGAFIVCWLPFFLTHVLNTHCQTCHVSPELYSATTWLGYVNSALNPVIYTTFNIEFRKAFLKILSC

Target: D(3) dopamine receptor (Homo sapiens) (UniProt P35462)
Assay: qHTS of D3 Dopamine Receptor Agonist: D3 Dopamine Receptor B-arrestin Agonist Confirmatory Assay;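 also: 100% = dopamine control response; nearly all actives have a fitted effect of over 70% in size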
Conditions: DiscoveRx D3 beta-arrestin cells, luminescence, 90 min; at 76.9 µM (top of the series)
Source text: D3 DARs represent a very important target for the treatment of several neuropsychiatric disorders. Indeed, one of the most promising therapeutic applications for the D3 DAR is in the area of addiction and related disorders. […] These findings have been observed with a number of addictive substances including cocaine, amphetamine, nicotine, and alcohol. […] Increased D3 DAR activity can thus lead to neuroprotective and neurorestorative actions in the CNS. […] This assay is used to confirm the activity of the identified D3 dopamine receptor agonist. Activation is the desired outcome for this assay. NIH Molecular Libraries Probe Production Centers Network [MLPCN] NIH Chemical Genomics Center [NCGC] MLPCN Grant: NS064831 Assay Submitter (PI): David Sibley
Freshly passaged DiscoveRx D3 cells are plated in 1536 well white, solid bottom plates at a density of 1500 cells/well in 3microl of complete media. After an overnight incubation at 37 degrees C in 5% CO2, cells are loaded with 23nl of test compound from the compound library (as well as dopamine controls) using a 1536 pintool and incubated at 37 degrees C for 90 minutes. Two microliters of DiscoveRx reagent is then added to all cells, and they are incubated for an additional 30 - 60 minutes at room temperature. Following incubation, luminescence is measured on a ViewLux CCD-based luminometer reader using a 20 sec exposure time.

Compound | activation
O=C(NCC1(N2CCCCC2)CCCCC1)c1ccc(Cl)s1 | inactive: -6.93%
